Measurements as given in ChEMBL document CHEMBL2331313, “Synthesis and SAR study of modulators inhibiting tRXRα-dependent AKT activation” (Eur J Med Chem, 2013).

Tests used:
Type in all cases: cell-based
[1] = molecular target: T1, Retinoic acid receptor RXR-alpha (Homo sapiens) (UniProt P19793); assay: Inhibition of RXRalpha in human A549 cells assessed as inhibition of TNFalpha-induced Akt phosphorylation at 30 uM incubated for 1 hr prior to TNFalpha-induction measured after 30 mins by Western blot analysis
T1 sequence (whole entry): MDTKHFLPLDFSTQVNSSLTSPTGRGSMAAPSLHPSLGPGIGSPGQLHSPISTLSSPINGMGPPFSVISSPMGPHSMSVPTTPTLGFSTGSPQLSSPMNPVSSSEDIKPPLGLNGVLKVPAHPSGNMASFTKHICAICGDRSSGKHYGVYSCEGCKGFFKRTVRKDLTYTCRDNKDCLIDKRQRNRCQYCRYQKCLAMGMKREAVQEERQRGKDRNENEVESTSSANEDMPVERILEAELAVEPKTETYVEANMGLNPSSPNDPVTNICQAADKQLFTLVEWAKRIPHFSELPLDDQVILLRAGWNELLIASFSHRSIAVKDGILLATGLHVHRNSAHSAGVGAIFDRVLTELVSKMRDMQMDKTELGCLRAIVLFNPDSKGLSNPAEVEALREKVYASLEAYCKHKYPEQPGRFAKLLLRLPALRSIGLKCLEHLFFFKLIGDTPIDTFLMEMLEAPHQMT
In short: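 A549 cells (DMEM, 10% FBS) pretreated 1 hr with 30 μM compound, then TNFα (10 ng/mL) for 30 min. Phospho-AKT (1:1000) and total AKT (1:1000) immunoblotted after 10% SDS-PAGE, with ECL detection.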

[2] = molecular target: T1, Retinoic acid receptor RXR-alpha (Homo sapiens); assay: Inhibition of RXRalpha in human HepG2 cells assessed as inhibition of TNFalpha-induced Akt phosphorylation
[3] = molecular target: T1, Retinoic acid receptor RXR-alpha (Homo sapiens); assay: Antagonist activity at RXRalpha (unknown origin) expressed in HCT116 cells assessed as inhibition of 9-cis-RA-induced galactosidase activity after 12 hrs by gal4 reporter gene assay; details: HCT-116
In short: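 GAL4-RXRα-LBD transactivation in HCT-116 cells: cells transfected for 24 hr with pG5 luciferase reporter (50 ng/well) plus pGAL4-RXRα-LBD vector (50 ng/well), then exposed to 9-cis-RA (10^-7 M) together with varied compound concentrations for 12 hr. Luciferase read by dual-luciferase assay. Cells grown in DMEM with 10% FBS, 37°C, 5% CO2.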

[4] = molecular target: T1, Retinoic acid receptor RXR-alpha (Homo sapiens); assay: Inhibition of RXRalpha in human HCT116 cells assessed as inhibition of TNFalpha-induced Akt phosphorylation; details: HCT-116

Measured: inhibition

CC(C)c1ccc(/C=C2\C=C(CC(=O)O)c3cc(F)ccc32)cc1
active: [1] | [2] | [3] Dose-dependent effect | [4]

Activity calls are given as the source filed them.
